The record followed here is patent US10987430B2, “Di-substituted maleic amide linker for antibody drug conjugating and preparation method and use thereof” (Mabwell (shanghai) Bioscience Co., Ltd., priority 2016, dated 2021).

Experiment [1] has as its system NCI-N87 human gastric cancer cells. As to the kind of experiment: SRB cell proliferation assay in vitro. Format: cell-based. The text has this:
(§1) Sulforhodamine B (SRB)-based colorimetric method was used in this Example to evaluate the anti-proliferative effect of the drugs. SRB is a pink anionic dye which is easily soluble in water and can specifically bind to basic amino acids making up proteins in cells under an acidic condition. It provides an absorption peak at 510 nm, and the absorbance is linearly and positively correlated with the amount of cells. In this regard, the method can be used in a quantitative detection of cell number.
(§2) BT-474, SK-BR-3 and NCI-N87 cells in RPMI 1640 medium containing 10% fetal bovine serum, SKOV-3, Du-145, Panc-1, MCF-7 and MDA-MB-231 cells in DMEM containing 10% fetal bovine serum, and MDA-MB-468 cells in DMEM/F12 containing 10% fetal bovine serum were incubated to logarithmic growth phase in a 5% CO2 incubator at 37° C. The above cells in the logarithmic growth phase were inoculated into 96-well plates at a density of 2×10^3 to 9×10^3 cells per well, 100 μL per well, cultured for 24 hours and then different concentrations of drugs were added thereto for 5 days. Specifically, each drug was prepared into nine concentrations by diluting in 3, 4 or 5-fold, each concentration was set in duplicate wells, and corresponding concentration of vehicle control wells and medium control wells without cells were set too. At the end of drug action, culture solutions were decanted, and 100 μl of a pre-cooled trichloroacetic acid solution (30%, w/v) at 4° C. was added to each well and the cells were fixed at 4° C. for 1 hour. Subsequently, the cells were washed with deionized water for 5 times, and dried at room temperature, and then 100 μL of 0.4% (w/v) SRB dye (Sigma, prepared with 1% glacial acetic acid) was added to each well. After being incubated and stained at room temperature for 30 minutes, the cells were washed with 1% glacial acetic acid for 4 times to remove unbound dyes, and then dried at room temperature. Afterwards, 100 μL of 10 mM Tris solution was added per well. After being incubated and stained at room temperature for 15 minutes, the cells was washed with 1% glacial acetic acid for 5 times to remove unbound SRB, and then dried at room temperature. Dyes bound to the proteins in cells were dissolved by addition of 10 mM Tris buffer (pH=10.5) per well, and the absorbance (OD value) was measured at wavelengths of 510 nm and 690 nm using Synergy 2 Microplate Reader (Bio-Tek). A=OD510−OD690. Inhibition rate (%)=(Acontrol−Adrug)/Acontrol×100%
(§3) Sulforhodamine B (SRB)-based colorimetric method was used in this Example to evaluate the anti-proliferative effect of the drugs. […] It provides an absorption peak at 510 nm, and the absorbance is linearly and positively correlated with the amount of cells. In this regard, the method can be used in a quantitative detection of cell number. […]

Experiment [2] has as its system BT-474 human breast cancer cells. The experiment is described as follows: SRB cell proliferation assay in vitro. Type of experiment: cell-based.
Excerpt: as §1, §2, §3

Experiment [3] concerns SK-BR-3 human breast cancer cells. As to the kind of experiment: SRB cell proliferation assay in vitro. Type of experiment: cell-based. Conditions: SK-BR-3, Her2 highly expressing, 5 days, FIG. 4.
Excerpt: as §1
BT-474, SK-BR-3 and NCI-N87 cells in RPMI 1640 medium containing 10% fetal bovine serum, SKOV-3, Du-145, Panc-1, MCF-7 and MDA-MB-231 cells in DMEM containing 10% fetal bovine serum, and MDA-MB-468 cells in DMEM/F12 containing 10% fetal bovine serum were incubated to logarithmic growth phase in a 5% CO2 incubator at 37° C. The above cells in the logarithmic growth phase were inoculated into 96-well plates at a density of 2×10^3 to 9×10^3 cells per well, 100 μL per well, cultured for 24 hours and then different concentrations of drugs were added thereto for 5 days. […] Dyes bound to the proteins in cells were dissolved by addition of 10 mM Tris buffer (pH=10.5) per well, and the absorbance (OD value) was measured at wavelengths of 510 nm and 690 nm using Synergy 2 Microplate Reader (Bio-Tek). […]

Experiment [4] concerns human gastric cancer NCI-N87 subcutaneous xenografts. As to the kind of experiment: In vivo anti-tumor efficacy assay (FIG. 10), IV once a week, 2 times in total. Further details: species or system BALB/cA-nude mice. The settings on record: 2 mg/kg. On the procedure:
6-7 weeks BALB/cA-nude mice (♀) were purchased from Shanghai Lingchang Biotechnology Co., Ltd. Production license number: SCXK (Shanghai) 2013-0018; animal certificate number: 2013001815683; and feeding environment: SPF level.
Those nude mice were subcutaneously inoculated with human gastric cancer NCI-N87 cells, and then randomly divided into groups (D0) when tumors grew to 100-250 mm^3. Tumor volume was measured 2-3 times a week, the mice were weighed, and corresponding data were recorded. The tumor volume (V) was calculated as: V=½×a×b^2; in which a and b represent length and width respectively. T/C (%)=(T−T0)/(C−C0)×100, in which T and C represent the tumor volumes at the end of the experiment; T0 and C0 represent the tumor volumes at the beginning of the experiment.

In the case of “Herceptin: HER2 antibody, naked antibody”, the IC50 was found to be 0.440 µg/mL in experiment [1] (NCI-N87, 120 h) and 0.0986 µg/mL in experiment [2] (BT-474, 120 h).
As for “Kadcyla: ADC drug developed by Genentech for the treatment of breast cancer; reference drug”, the “inhibition of tumor cell proliferation” value in experiment [3] was “significant inhibition of tumor cell proliferation”; in experiment [1] (NCI-N87, Her2 highly expressing, 5 days, FIG. 6, FIG. 9-1), “significant inhibition of tumor cell proliferation”; in experiment [2] (BT-474, Her2 highly expressing, 5 days, FIG. 5), “significant inhibition of tumor cell proliferation”. Further, the tumor inhibition rate in experiment [4] was found to be 77%.

As usually defined, the IC50 is the point on the concentration scale where inhibition reaches its midpoint.
